## Apparent affinities of Ab-14 variants for a coronavirus HR2 peptide

Source: Engelhart et al. 2022 (doi:10.1038/s41597-022-01779-4), MIT Lincoln Laboratory and A-Alpha Bio; data file from the FLAb repository.

The target is the same throughout: PDVDLGDISGINAS, from the HR2 region of SARS-CoV-2 spike.

Parent: Ab-14, a human scFv built as VH, a (GGGGS)3 linker, VL. Only the CDRs of the heavy chain vary.
VH: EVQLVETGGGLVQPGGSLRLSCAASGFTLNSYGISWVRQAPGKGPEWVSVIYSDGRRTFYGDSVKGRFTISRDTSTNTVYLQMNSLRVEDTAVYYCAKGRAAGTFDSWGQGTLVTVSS
VL: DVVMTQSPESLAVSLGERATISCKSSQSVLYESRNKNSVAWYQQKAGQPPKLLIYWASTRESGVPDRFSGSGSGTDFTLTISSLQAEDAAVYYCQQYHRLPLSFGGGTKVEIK

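The starting antibody came from a phage panning campaign against this peptide. Variants in AAYL49 differ from the parent at up to three CDR positions; double and triple changes were sampled at random. The scFvs were displayed on barcoded MATa yeast, the peptide on MATalpha yeast. The frequency of each diploid, read from paired DNA barcodes, reflects how well the two displayed proteins bind. Scores were corrected for input abundance and mapped to Kd with protein pairs of known affinity run in the same pool. The assay was run in three technical replicates.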

Changes read parent residue, position, new residue, counted from the first residue of the VH shown. The read-out is the apparent dissociation constant on a log10 scale (nM): the lower, the stronger. The mean shown is taken over the replicates in which the pair was detected. An entry "n.d." has no value in the source: the pair was not observed among the diploids in that replicate. This suggests poor binding but is not conclusive.

changes | replicates, log10 nM | mean log10 Kd (nM) | signal with controls
G26Y+D54E+D106N | n.d. n.d. n.d. | n.d. | 0/9
N30Q+G55W+K65Y | 5.42 n.d. n.d. | 5.42 | 0/9
Y52E+G55Y+T104N | n.d. n.d. 3.53 | 3.53 | 1/9 (5.33)
F27I+A101W+D106W | n.d. n.d. n.d. | n.d. | 2/9 (1.98)
G26I+R100I+F105A | n.d. n.d. n.d. | n.d. | 1/9 (2.98)
Y32D+S35D+F59M | n.d. n.d. n.d. | n.d. | 2/9 (3.91)
F27A+T58E+R100Q | n.d. 2.58 n.d. | 2.58 | 2/9 (2.98)
D54M+D62I+V64N | n.d. 4.13 4.07 | 4.10 | 6/9 (4.09)
I51H+V64Q | n.d. n.d. n.d. | n.d. | 3/9 (4.19)
N30A+G55M+R57I | n.d. n.d. 5.89 | 5.89 | 2/9 (3.98)
Y32G+D106C | n.d. 3.34 n.d. | 3.34 | 0/9
N30T+A101L+G103L | n.d. n.d. 5.06 | 5.06 | 1/9 (2.64)
V50I+R56W+R57E | n.d. n.d. n.d. | n.d. | 4/9 (3.65)
Y60L+R100K+S107V | 2.35 2.54 2.52 | 2.47 | 6/9 (4.72)
G55N+F59Y+V64H | n.d. n.d. 5.00 | 5.00 | 0/9
T28Y+R56W+R100L | n.d. 4.39 n.d. | 4.39 | 1/9 (2.63)
G33W+R56E+Y60G | n.d. n.d. n.d. | n.d. | 0/9
G99Q+T104W+S107R | n.d. n.d. n.d. | n.d. | 4/9 (4.58)
F27C+D54V | n.d. n.d. n.d. | n.d. | 1/9 (5.22)
G55L+Y60E+S63G | n.d. n.d. n.d. | n.d. | 0/9
N30K+G61R+G103S | 3.74 n.d. n.d. | 3.74 | 0/9
D62W+K65L+S107E | 2.72 2.44 3.12 | 2.76 | 1/9 (3.70)
G26Y+S63A+R100Y | n.d. n.d. n.d. | n.d. | 0/9
S53A+G61M+A102C | n.d. n.d. 4.16 | 4.16 | 2/9 (4.40)
S63K+G103S+S107D | n.d. n.d. n.d. | n.d. | 0/9
F27C+S31D | 3.69 n.d. 3.63 | 3.66 | 1/9 (3.75)
T28D+G55Q+R57H | 2.09 3.61 4.38 | 3.36 | 1/9 (4.26)
S35L+V50M+S63P | n.d. n.d. n.d. | n.d. | 0/9
R56P+F59Q+A102C | 3.66 3.13 3.96 | 3.58 | 3/9 (4.09)
Y32K+G99V+G103C | n.d. n.d. n.d. | n.d. | 0/9
I51H+S53G+K65L | n.d. n.d. n.d. | n.d. | 1/9 (4.50)
G61D+A101W+G103H | n.d. 3.34 n.d. | 3.34 | 0/9
L29A+I34W+I51S | n.d. n.d. n.d. | n.d. | 0/9
S35F+V50P+S53M | n.d. 4.56 4.64 | 4.60 | 5/9 (4.14)
S35M+K65I+F105T | n.d. n.d. n.d. | n.d. | 0/9
G33D+D54E+T58S | n.d. n.d. n.d. | n.d. | 0/9
S53M+R100M | n.d. n.d. n.d. | n.d. | 0/9
G26P+D54C+R56W | n.d. n.d. n.d. | n.d. | 0/9
S53P+R57T+G99E | 5.17 4.03 3.85 | 4.35 | 3/9 (4.61)
G26R+D54F | n.d. n.d. n.d. | n.d. | 3/9 (4.87)

The first 3 entries again:

| changes | replicates, log10 nM | mean log10 Kd (nM) | signal with controls |
|---|---|---|---|
| G26Y+D54E+D106N | n.d. n.d. n.d. | n.d. | 0/9 |
| N30Q+G55W+K65Y | 5.42 n.d. n.d. | 5.42 | 0/9 |
| Y52E+G55Y+T104N | n.d. n.d. 3.53 | 3.53 | 1/9 (5.33) |

Empty control strains, which show no peptide, gave a signal in 15% of pairings with library AAYL49; the median was 4.06 and 95% of these signals were weaker than 2.83. No background was subtracted. Also given: how often the same scFv was detected with the empty control strains, with their mean in brackets.